Where two headings read alike, the source gives them in different places.

Chains of the proteins cited; added tags and fusions are not shown. Lines headed by an entry give the natural chain unless they say otherwise; changes in a name come on top.
UniProt Q99572: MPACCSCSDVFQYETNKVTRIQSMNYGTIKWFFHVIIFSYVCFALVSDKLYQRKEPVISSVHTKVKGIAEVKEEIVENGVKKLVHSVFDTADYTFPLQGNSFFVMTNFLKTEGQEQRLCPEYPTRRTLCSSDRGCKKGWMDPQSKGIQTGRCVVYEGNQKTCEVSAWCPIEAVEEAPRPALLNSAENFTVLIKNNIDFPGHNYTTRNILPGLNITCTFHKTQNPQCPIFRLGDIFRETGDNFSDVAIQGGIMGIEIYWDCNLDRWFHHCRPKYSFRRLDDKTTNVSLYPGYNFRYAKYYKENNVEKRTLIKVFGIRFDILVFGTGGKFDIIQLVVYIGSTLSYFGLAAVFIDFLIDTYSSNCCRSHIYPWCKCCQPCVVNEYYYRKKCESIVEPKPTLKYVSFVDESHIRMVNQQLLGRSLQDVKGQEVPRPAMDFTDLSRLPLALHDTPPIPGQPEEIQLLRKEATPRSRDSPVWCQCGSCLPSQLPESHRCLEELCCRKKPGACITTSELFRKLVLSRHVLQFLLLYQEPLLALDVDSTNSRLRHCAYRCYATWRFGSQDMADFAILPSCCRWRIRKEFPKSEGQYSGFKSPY
UniProt Q64663: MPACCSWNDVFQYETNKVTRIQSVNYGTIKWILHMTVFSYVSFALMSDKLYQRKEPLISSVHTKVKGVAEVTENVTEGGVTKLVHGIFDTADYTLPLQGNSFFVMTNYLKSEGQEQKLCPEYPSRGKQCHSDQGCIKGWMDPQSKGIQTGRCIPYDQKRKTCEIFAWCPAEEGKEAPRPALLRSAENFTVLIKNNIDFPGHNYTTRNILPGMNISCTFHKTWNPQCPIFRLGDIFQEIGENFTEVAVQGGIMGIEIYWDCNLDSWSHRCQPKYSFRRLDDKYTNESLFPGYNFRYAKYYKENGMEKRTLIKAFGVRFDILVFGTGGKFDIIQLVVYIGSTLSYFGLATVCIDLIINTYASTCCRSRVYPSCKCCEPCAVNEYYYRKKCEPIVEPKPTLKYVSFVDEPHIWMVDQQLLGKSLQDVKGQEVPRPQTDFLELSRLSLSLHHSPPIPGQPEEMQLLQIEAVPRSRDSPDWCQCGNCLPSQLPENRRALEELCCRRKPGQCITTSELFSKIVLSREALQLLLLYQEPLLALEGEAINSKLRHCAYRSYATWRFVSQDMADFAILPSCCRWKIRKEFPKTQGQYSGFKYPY

The text below walks through data of patent US9096596B2 (Janssen Pharmaceutica NV, priority 2013, dated 2015).

For assay [1], the target named is T1, P2X7 (Homo sapiens (Human), UniProt Q99572). The experiment in a line: P2X7 antagonism in human whole blood (IL-1β release, ELISA). The assay is classed as cell-based. The settings on record: IL-1β release in human blood, LPS 30 ng/ml + Bz-ATP 1 mM. The procedure:
Human blood was collected using a blood donor program. […] Cells were incubated for an additional 1.5 hours. […] In Table 2, when the data cell has been left blank, it is intended to mean that the compound was not tested in that assay.

For assay [2], the target named is T1, P2X7. The experiment in a line: Radioligand binding, human P2X7-1321N1 cell membranes, tracer tritiated A-804598. The procedure: (§1) human or rat P2X7-1321 N1 cells were collected and frozen @ −80° C. On the day of the experiment, cell membrane preparations were made according to standard published methods. The total assay volume was 100 μl:10 μl compound (10×)+(b) 40 μl tracer (2.5×)+50 μl membrane (2×). The tracer used for the assay was tritiated A-804598. The compound can be prepared as described in the literature. […] The assay was terminated by filtration (GF/B filters pre-soaked with 0.3% PEI) and washed with washing buffer (Tris-HCl 50 mM). The IC50 generated in the binding assay was corrected for tracer concentration and affinity of the tracer to derive at the affinity (Ki) of the test compounds.

Assay [3] addresses T2, rat P2X7 (Rattus norvegicus (Rat), UniProt Q64663). The experiment in a line: Radioligand binding, rat P2X7-1321N1 cell membranes, tracer tritiated A-804598. The procedure: as §1
Assay [4] has as its target T1, P2X7. The assay can be described thus: Ca2+ flux (FLIPR) in 1321N1 cells expressing recombinant human P2X7 channel. It is filed as cell-based. The note with it: 250 μM BzATP, Calcium-4 dye. The procedure: (§2) 1321N1 cells expressing the recombinant human, rat or mouse P2X7 channel was cultured in HyQ DME/(HyClone/Dulbecco's Modified Eagle Medium) high glucose supplemented with 10% Fetal Bovine Serum (FBS) and appropriate selection marker. Cells were seeded at a density of 25000 cells/well (96-well clear bottom black walled plates) in 100 μl volume/well. On the day of the experiment, cell plates were washed with assay buffer, containing (in mM): 130 NaCl, 2 KCl, 1 CaCl2, 1 MgCl2, 10 HEPES, 5 glucose; pH 7.40 and 300 mOs. After the wash, cells were loaded with the Calcium-4 dye (Molecular Device) and incubated in the dark for 60 minutes. Test compounds were prepared at 250× the test concentration in neat DMSO. Intermediate 96-well compound plates were prepared by transferring 1.2 μL of the compound into 300 μL of assay buffer. A further 3× dilution occurred when transferring 50 μL/well of the compound plate to 100 μL/well in the cell plate. Cells were incubated with test compounds and dye for 30 minutes. Calcium dye fluorescence was monitored in FLIPR as the cells were challenged by adding 50 μL/well of BzATP (final concentration is 250 μM BzATP (human and rat) or 600 μM (mouse)). The fluorescence change was measured 180 seconds after adding the agonist.
(A change in cytosolic calcium serves as a functional read-out for many receptors and channels.)

For assay [5], the target named is T2, rat P2X7. The assay can be described thus: Ca2+ flux (FLIPR) in 1321N1 cells expressing recombinant rat P2X7 channel. It is filed as cell-based. The settings on record: 250 μM BzATP, Calcium-4 dye. The procedure:
as §2

Setting [6] is: human P2X7-1321N1 membranes, 1 hour at 4° C., IC50 corrected for tracer concentration and affinity.
Where [7] appears, read: rat P2X7-1321N1 membranes, 1 hour at 4° C., IC50 corrected for tracer concentration and affinity.

With `Cc1nc2c(c(-c3ccn[nH]3)n1)C[C@@H](C)N(C(=O)c1cccc(C(F)(F)F)c1Cl)C2` (single isomer, unassigned) [Example 58, (6R*)-7-{[2-Chloro-3-(trifluoromethyl)phenyl]carbonyl}-2,6-dimethyl-4-(1H-pyrazol-5-yl)-5,6,7,8-tetrahydropyrido[3,4-d]pyrimidine], the IC50 in assay [1] amounted to 0.16 µM. In addition, the figures for the Ki in assay [2] and in assay [3] were 0.0158 µM and 0.0028 µM, respectively.

Turning to `Cc1nc2c(c(-c3ccn[nH]3)n1)C[C@@H](C)N(C(=O)c1ccc(Cl)c(F)c1Cl)C2` (single isomer, unassigned) [Example 71], the Ki in assay [2] (setting [6]) came to 0.0126 µM. Besides, the IC50 in assay [4] was found to be 0.0029 µM; in assay [5] it was 0.0024 µM.

`Cc1nc2c(c(-c3ccn[nH]3)n1)C[C@@H](C)N(C(=O)c1ccc(Cl)cc1Cl)C2` (single isomer, unassigned) [Example 84, (R*)-(2,4-dichlorophenyl)(2,6-dimethyl-4-(1H-pyrazol-5-yl)-5,6-dihydropyrido[3,4-d]pyrimidin-7(8H)-yl)methanone]: the affinity in assay [3], expressed as Ki, was 0.0019 µM.

Consider `Cc1nc2c(c(-c3ccn[nH]3)n1)C[C@H](C)N(C(=O)c1ccc(Cl)cc1F)C2` (single isomer, unassigned) [Example 89, (S*)-(4-chloro-2-fluorophenyl)(2,6-dimethyl-4-(1H-pyrazol-5-yl)-5,6-dihydropyrido[3,4-d]pyrimidin-7(8H)-yl)methanone], for which, in assay [3], the Ki was determined as 0.001 µM. In addition, the IC50 in assay [5] was 0.0159 µM.

`C[C@@H]1c2ncnc(-c3ccn[nH]3)c2CCN1C(=O)c1ccc(F)c(C(F)(F)F)c1Cl` (single isomer, unassigned) [Example 116, (R*)-(2-chloro-4-fluoro-3-(trifluoromethyl)phenyl)(8-methyl-4-(1H-pyrazol-5-yl)-5,6-dihydropyrido[3,4-d]pyrimidin-7(8H)-yl)methanone]: the Ki in assay [2] is 0.0316 µM. Also, the figures for the half-maximal inhibitory concentration (IC50) in assay [4] and in assay [5] were 0.0059 µM and 0.0086 µM, respectively.

The molecule `O=C(c1cccc(C(F)(F)F)c1Cl)N1CCc2c(ncnc2-c2nccs2)C1` [Example 37, 7-{[2-Chloro-3-(trifluoromethyl)phenyl]carbonyl}-4-(1,3-thiazol-2-yl)-5,6,7,8-tetrahydropyrido[3,4-d]pyrimidine] came in with a Ki in assay [3] (setting [7]) of 0.0251 µM. Further, in assay [5], the IC50 was found to be 0.649 µM.

Consider `O=C(c1cccc(Cl)c1Cl)N1CCc2c(ncnc2-c2nccs2)C1` [Example 38, 7-[(2,3-Dichlorophenyl)carbonyl]-4-(1,3-thiazol-2-yl)-5,6,7,8-tetrahydropyrido[3,4-d]pyrimidine], for which, in assay [3] (setting [7]), the Ki came to 0.0457 µM. The IC50 in assay [5] turned out to be 1.38 µM.

With `Cc1nc2c(c(-n3nccn3)n1)CCN(C(=O)c1cccc(C(F)(F)F)c1Cl)C2` [Example 47, 7-{[2-Chloro-3-(trifluoromethyl)phenyl]carbonyl}-2-methyl-4-(2H-1,2,3-triazol-2-yl)-5,6,7,8-tetrahydropyrido[3,4-d]pyrimidine], the IC50 in assay [1] is greater than 10 µM; in assay [4] it was 0.0158 µM. For the same molecule, the Ki in assay [2] (setting [6]) was determined as 0.0398 µM.

In assay [2] (setting [6]), `Cc1nc2c(c(-c3ccn[nH]3)n1)CC(C)N(C(=O)c1cccc(C(F)(F)F)c1Cl)C2` (stereo not shown) [Example 56, 7-{[2-Chloro-3-(trifluoromethyl)phenyl]carbonyl}-2,6-dimethyl-4-(1H-pyrazol-5-yl)-5,6,7,8-tetrahydropyrido[3,4-d]pyrimidine] came in with a Ki of 0.0372 µM. In addition, the figures for the IC50 in assay [4] and in assay [5] were 0.0143 µM and 0.0124 µM, respectively.

Consider `Cc1nc2c(c(-c3ccn[nH]3)n1)CC(C)N(C(=O)c1ccc(F)c(C(F)(F)F)c1Cl)C2` (stereo not shown) [Example 64, (2-chloro-4-fluoro-3-(trifluoromethyl)phenyl)(2,6-dimethyl-4-(1H-pyrazol-5-yl)-5,6-dihydropyrido[3,4-d]pyrimidin-7(8H)-yl)methanone], for which the Ki in assay [2] (setting [6]) came out at 0.0794 µM. The IC50 in assay [4] stood at 0.0164 µM; in assay [5], 0.0133 µM.

Regarding `Cc1nc2c(c(-c3ccn[nH]3)n1)CC(C)N(C(=O)c1cccc(Cl)c1Cl)C2` (stereo not shown) [Example 67, (2,3-dichlorophenyl)(2,6-dimethyl-4-(1H-pyrazol-5-yl)-5,6-dihydropyrido[3,4-d]pyrimidin-7(8H)-yl)methanone], the affinity in assay [2] (setting [6]) corresponds to a Ki of 0.0126 µM. Moreover, the IC50 in assay [4] stood at 0.0135 µM.

In assay [2] (setting [6]), `Cc1nc2c(c(-c3ccnn3C)n1)CC(C)N(C(=O)c1cccc(C(F)(F)F)c1Cl)C2` (stereo not shown) [Example 73, (2-chloro-3-(trifluoromethyl)phenyl)(2,6-dimethyl-4-(1-methyl-1H-pyrazol-5-yl)-5,6-dihydropyrido[3,4-d]pyrimidin-7(8H)-yl)methanone] came in with a Ki of 0.126 µM. In addition, the IC50 in assay [4] was 0.0966 µM.

As for `Cc1nc2c(c(-c3ccn[nH]3)n1)CC(C)N(C(=O)c1cccc(C(F)(F)F)c1F)C2` (stereo not shown) [Example 74, (2,6-dimethyl-4-(1H-pyrazol-5-yl)-5,6-dihydropyrido[3,4-d]pyrimidin-7(8H)-yl)(2-fluoro-3-(trifluoromethyl)phenyl)methanone], the affinity in assay [2] (setting [6]), expressed as Ki, was 0.0251 µM. The IC50 in assay [4] stood at 0.01 µM.

Molecule `Cc1nc2c(c(-c3ccn[nH]3)n1)CC(C)N(C(=O)c1ccc(F)c(Cl)c1Cl)C2` (stereo not shown) [Example 80, (2,3-dichloro-4-fluorophenyl)(2,6-dimethyl-4-(1H-pyrazol-5-yl)-5,6-dihydropyrido[3,4-d]pyrimidin-7(8H)-yl)methanone] returned an inhibitory constant (Ki) in assay [2] (setting [6]) of 0.0251 µM. Further, the half-inhibitory concentration (IC50) in assay [4] worked out at 0.0251 µM; in assay [5], 0.02 µM.

`Cc1nc2c(c(-c3ccn[nH]3)n1)CC(C)N(C(=O)c1ccc(Cl)cc1Cl)C2` (stereo not shown) [Example 83, (2,4-dichlorophenyl)(2,6-dimethyl-4-(1H-pyrazol-5-yl)-5,6-dihydropyrido[3,4-d]pyrimidin-7(8H)-yl)methanone] gave an inhibition constant (Ki) in assay [2] (setting [6]) of 0.0316 µM. Moreover, the values for the IC50 in assay [4] and in assay [5] were 0.0017 µM and 0.0149 µM, respectively.

Molecule `CCc1nc2c(c(-c3ccn[nH]3)n1)CC(C)N(C(=O)c1cccc(C(F)(F)F)c1Cl)C2` (stereo not shown) [Example 98, (2-chloro-3-(trifluoromethyl)phenyl)(2-ethyl-6-methyl-4-(1H-pyrazol-5-yl)-5,6-dihydropyrido[3,4-d]pyrimidin-7(8H)-yl)methanone] gave a Ki in assay [2] (setting [6]) of 0.055 µM. The IC50 amounted to 0.0255 µM in assay [4] and 0.0149 µM in assay [5].

The molecule `CC(C)c1nc2c(c(-c3ccn[nH]3)n1)CC(C)N(C(=O)c1cccc(C(F)(F)F)c1Cl)C2` (stereo not shown) [Example 101, (2-chloro-3-(trifluoromethyl)phenyl)(2-isopropyl-6-methyl-4-(1H-pyrazol-5-yl)-5,6-dihydropyrido[3,4-d]pyrimidin-7(8H)-yl)methanone] displayed a Ki in assay [2] (setting [6]) of 0.1 µM. Besides, the IC50 in assay [4] amounted to 0.0824 µM; in assay [5], 0.023 µM.

As for `CCc1nc2c(c(-c3ccn[nH]3)n1)CC(C)N(C(=O)c1ccc(Cl)c(F)c1Cl)C2` (stereo not shown) [Example 104, (2,4-dichloro-3-fluorophenyl)(2-ethyl-6-methyl-4-(1H-pyrazol-5-yl)-5,6-dihydropyrido[3,4-d]pyrimidin-7(8H)-yl)methanone], the affinity in assay [2] (setting [6]) corresponds to a Ki of 0.0398 µM. The IC50 in assay [4] was 0.0191 µM.

Molecule `CC1c2ncnc(-c3ccn[nH]3)c2CCN1C(=O)c1cccc(C(F)(F)F)c1Cl` (stereo not shown) [Example 112, (2-chloro-3-(trifluoromethyl)phenyl)(8-methyl-4-(1H-pyrazol-5-yl)-5,6-dihydropyrido[3,4-d]pyrimidin-7(8H)-yl)methanone] had a Ki in assay [2] (setting [6]) of 0.0251 µM. In assay [4], the IC50 was determined as 0.0129 µM.

Consider `CC1c2ncnc(-c3ccn[nH]3)c2CCN1C(=O)c1ccc(F)c(C(F)(F)F)c1Cl` (stereo not shown) [Example 115, (2-chloro-4-fluoro-3-(trifluoromethyl)phenyl)(8-methyl-4-(1H-pyrazol-5-yl)-5,6-dihydropyrido[3,4-d]pyrimidin-7(8H)-yl)methanone], for which the Ki in assay [2] (setting [6]) is 0.0316 µM. The half-inhibitory concentration (IC50) came to 0.0139 µM in assay [4] and 0.0142 µM in assay [5].

In assay [2] (setting [6]), `CC1c2ncnc(-c3ccn[nH]3)c2CCN1C(=O)c1ccc(F)c(Cl)c1Cl` (stereo not shown) [Example 118, (2,3-dichloro-4-fluorophenyl)(8-methyl-4-(1H-pyrazol-5-yl)-5,6-dihydropyrido[3,4-d]pyrimidin-7(8H)-yl)methanone] showed a Ki of 0.0126 µM. Also, the IC50 in assay [4] was 0.0057 µM.

As to `CC1c2ncnc(-c3ccn[nH]3)c2CCN1C(=O)c1ccc(Cl)c(F)c1Cl` (stereo not shown) [Example 121], in assay [2] (setting [6]), the affinity, expressed as Ki, was 0.02 µM. Besides, the IC50 in assay [4] was found to be 0.0106 µM; in assay [5], 0.128 µM.

One may read the IC50 as the concentration that inhibits the measured activity by half. In general, Ki refers to the equilibrium dissociation constant of an inhibitor or competing ligand from its target.
